From EP4834897A1, “COMPOUNDS WITH TWO AZAHETEROCYCLES SUBSTITUTED ISOINDOLINONE SKELETON AND USES THEREOF” (dated 2026)

Sequences of proteins named here, by UniProt entry; tags and fusion partners are left off.
UniProt Q96SW2, whole entry: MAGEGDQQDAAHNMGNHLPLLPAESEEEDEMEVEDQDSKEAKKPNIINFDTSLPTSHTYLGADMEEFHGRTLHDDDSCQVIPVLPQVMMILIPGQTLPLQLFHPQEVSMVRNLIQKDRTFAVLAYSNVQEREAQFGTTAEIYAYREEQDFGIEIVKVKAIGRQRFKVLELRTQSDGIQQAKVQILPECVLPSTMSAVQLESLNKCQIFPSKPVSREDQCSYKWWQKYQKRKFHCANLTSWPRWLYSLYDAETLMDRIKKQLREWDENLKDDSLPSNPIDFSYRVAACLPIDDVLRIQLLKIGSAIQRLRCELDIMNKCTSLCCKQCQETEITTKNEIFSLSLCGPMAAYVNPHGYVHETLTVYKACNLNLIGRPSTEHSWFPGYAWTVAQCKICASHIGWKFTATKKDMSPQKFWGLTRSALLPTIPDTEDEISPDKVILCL
UniProt P15170, whole entry: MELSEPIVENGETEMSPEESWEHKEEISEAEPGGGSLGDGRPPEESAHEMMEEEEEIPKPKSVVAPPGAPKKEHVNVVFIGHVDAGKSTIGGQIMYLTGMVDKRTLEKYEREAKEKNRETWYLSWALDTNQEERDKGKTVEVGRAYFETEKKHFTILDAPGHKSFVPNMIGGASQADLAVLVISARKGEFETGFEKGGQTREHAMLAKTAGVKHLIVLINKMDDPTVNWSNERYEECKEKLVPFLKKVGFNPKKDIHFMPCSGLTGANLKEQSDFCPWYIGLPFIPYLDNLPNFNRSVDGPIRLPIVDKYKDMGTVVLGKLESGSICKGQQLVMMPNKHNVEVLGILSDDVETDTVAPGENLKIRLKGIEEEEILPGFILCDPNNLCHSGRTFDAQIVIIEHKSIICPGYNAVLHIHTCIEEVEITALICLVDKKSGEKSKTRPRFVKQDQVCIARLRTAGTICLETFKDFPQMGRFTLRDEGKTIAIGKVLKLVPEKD
UniProt Q9UKS7, whole entry: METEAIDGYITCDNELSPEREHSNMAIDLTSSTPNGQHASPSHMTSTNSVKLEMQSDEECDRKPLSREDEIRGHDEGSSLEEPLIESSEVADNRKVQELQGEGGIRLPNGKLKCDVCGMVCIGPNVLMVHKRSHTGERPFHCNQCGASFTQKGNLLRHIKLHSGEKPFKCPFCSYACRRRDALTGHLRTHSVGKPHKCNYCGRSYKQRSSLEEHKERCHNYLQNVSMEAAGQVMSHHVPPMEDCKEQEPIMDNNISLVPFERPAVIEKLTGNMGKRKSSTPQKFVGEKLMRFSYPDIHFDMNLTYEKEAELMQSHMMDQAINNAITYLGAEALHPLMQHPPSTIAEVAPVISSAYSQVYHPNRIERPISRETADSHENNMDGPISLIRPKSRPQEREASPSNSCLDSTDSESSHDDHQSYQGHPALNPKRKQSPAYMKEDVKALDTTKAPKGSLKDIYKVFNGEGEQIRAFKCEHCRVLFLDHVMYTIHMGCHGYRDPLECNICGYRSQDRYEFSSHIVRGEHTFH
UniProt P48729, whole entry: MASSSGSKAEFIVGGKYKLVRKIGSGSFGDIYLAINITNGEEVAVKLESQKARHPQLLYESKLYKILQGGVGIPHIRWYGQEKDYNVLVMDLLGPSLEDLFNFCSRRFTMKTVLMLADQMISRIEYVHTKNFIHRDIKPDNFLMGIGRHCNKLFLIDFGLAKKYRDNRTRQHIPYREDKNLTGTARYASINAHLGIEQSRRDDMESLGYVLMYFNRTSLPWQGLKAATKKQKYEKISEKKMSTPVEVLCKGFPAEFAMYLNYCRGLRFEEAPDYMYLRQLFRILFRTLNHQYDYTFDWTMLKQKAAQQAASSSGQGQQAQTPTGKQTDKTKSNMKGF
UniProt P30291, whole entry: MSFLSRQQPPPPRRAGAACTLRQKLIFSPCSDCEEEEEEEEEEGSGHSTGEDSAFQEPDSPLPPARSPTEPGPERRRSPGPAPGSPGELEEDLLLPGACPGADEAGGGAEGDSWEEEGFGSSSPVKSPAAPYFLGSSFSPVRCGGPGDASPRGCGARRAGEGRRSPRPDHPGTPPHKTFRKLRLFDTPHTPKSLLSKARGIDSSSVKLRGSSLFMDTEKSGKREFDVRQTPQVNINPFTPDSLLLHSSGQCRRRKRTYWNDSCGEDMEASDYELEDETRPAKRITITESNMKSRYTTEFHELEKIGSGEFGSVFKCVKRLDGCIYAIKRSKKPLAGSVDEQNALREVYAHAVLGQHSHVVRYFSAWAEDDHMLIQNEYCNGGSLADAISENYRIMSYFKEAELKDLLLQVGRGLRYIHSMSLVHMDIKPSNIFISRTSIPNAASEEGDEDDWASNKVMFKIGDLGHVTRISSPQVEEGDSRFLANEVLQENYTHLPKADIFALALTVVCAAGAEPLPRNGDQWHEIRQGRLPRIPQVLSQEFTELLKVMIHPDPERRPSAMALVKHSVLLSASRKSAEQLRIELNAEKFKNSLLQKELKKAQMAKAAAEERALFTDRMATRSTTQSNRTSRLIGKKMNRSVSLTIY
UniProt Q13422, whole entry: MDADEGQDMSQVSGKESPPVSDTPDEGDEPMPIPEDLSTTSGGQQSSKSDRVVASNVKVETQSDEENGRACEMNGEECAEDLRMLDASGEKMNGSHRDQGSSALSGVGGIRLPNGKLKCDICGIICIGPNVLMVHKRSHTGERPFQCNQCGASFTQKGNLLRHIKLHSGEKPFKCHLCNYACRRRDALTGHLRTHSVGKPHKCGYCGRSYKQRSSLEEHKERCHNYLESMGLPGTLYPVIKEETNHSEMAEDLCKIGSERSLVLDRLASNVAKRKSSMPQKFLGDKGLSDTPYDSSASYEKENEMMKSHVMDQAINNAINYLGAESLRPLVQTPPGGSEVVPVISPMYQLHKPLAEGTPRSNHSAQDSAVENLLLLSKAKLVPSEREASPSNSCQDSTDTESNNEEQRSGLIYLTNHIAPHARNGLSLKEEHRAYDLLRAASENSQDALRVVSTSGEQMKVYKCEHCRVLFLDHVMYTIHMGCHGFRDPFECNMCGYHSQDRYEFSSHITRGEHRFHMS
UniProt Q9UKT9, whole entry: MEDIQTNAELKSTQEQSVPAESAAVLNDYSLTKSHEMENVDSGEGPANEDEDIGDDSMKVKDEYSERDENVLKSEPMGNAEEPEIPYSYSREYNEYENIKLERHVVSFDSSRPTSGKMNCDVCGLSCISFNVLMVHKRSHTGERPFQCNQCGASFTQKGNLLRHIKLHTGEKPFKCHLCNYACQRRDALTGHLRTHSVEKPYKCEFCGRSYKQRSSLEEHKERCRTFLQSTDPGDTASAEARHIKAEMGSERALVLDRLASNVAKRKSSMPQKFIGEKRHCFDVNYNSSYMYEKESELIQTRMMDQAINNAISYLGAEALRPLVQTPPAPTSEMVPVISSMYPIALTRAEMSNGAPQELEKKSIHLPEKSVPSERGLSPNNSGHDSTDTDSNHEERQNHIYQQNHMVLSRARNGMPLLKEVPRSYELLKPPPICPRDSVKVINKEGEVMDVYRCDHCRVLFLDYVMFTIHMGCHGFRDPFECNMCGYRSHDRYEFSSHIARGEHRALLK
UniProt Q16531, whole entry partner: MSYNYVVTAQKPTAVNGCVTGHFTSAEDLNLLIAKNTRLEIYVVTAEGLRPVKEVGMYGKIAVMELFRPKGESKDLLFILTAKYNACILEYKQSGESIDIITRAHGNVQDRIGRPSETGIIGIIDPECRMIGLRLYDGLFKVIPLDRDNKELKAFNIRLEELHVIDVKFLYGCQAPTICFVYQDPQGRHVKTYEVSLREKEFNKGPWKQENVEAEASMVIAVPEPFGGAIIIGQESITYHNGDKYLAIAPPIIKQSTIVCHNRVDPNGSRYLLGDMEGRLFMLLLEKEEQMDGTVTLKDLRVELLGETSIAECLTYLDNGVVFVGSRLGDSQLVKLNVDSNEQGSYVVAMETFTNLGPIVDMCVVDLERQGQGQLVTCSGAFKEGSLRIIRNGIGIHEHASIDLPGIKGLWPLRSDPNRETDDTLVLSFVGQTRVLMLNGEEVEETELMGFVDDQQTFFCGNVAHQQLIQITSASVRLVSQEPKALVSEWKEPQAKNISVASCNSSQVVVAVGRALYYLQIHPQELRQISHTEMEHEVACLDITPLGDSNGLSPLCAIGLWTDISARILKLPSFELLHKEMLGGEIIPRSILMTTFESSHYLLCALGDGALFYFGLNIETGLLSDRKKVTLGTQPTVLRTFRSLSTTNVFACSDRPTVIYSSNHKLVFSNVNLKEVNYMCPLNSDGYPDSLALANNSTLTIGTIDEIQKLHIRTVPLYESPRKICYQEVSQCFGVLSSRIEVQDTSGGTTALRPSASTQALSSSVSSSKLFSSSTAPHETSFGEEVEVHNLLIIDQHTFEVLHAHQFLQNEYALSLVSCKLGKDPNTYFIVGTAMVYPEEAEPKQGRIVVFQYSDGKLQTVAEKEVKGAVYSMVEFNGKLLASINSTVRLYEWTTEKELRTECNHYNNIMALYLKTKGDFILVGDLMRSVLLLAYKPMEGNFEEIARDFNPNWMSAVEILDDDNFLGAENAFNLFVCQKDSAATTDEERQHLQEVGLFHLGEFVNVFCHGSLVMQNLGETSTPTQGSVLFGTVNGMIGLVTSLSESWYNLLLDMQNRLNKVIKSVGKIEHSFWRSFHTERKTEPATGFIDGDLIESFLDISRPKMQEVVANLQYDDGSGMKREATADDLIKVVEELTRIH

Test system: IL-2
Assay: Inflammatory cytokine release from PBMCs induced by PHA (flow cytometry CBA)
Details: 0.1 µM; PBMCs, PHA 1 µg/mL, 24 h

Row | SMILES | Inhibition Rate (%) IL-2
1 | O=C1CCC(N2Cc3cc(CCN4CCC(N5CCN(c6cccc(Cl)c6Cl)CC5)C(F)(F)C4)ccc3C2=O)C(=O)N1 (centres unmarked) | IV9 (40% < IV9 ≤ 50%)
2 | O=C1CCC(N2C(=O)c3ccc(CN4CCC(N5CCN(C(c6ccccc6)c6ccccc6)CC5)C(F)(F)C4)cc3C2=O)C(=O)N1 (centres unmarked) | IV10 (50% < IV 10 ≤ 60%)

Same assay, conditions: 1 µM; PBMCs, PHA 1 µg/mL, 24 h

Row | SMILES | Inhibition Rate (%) IL-2
3 | O=C1CCC(N2Cc3cc(CCN4CCC(N5CCN(c6cccc(Cl)c6Cl)CC5)C(F)(F)C4)ccc3C2=O)C(=O)N1 (centres unmarked) | IV1 1
4 | O=C1CCC(N2C(=O)c3ccc(CN4CCC(N5CCN(C(c6ccccc6)c6ccccc6)CC5)C(F)(F)C4)cc3C2=O)C(=O)N1 (centres unmarked) | IV1 0

Test system: TNF-α
Assay: as above
Details: 0.1 µM, PHA 1 µg/mL, 24 h

Row | SMILES | Inhibition Rate (%) TNF-α
5 | O=C1CCC(N2Cc3cc(CCN4CCC(N5CCN(c6cccc(Cl)c6Cl)CC5)C(F)(F)C4)ccc3C2=O)C(=O)N1 (centres unmarked) | IV8 (30% < IV8 ≤ 40%)
6 | O=C1CCC(N2C(=O)c3ccc(CN4CCC(N5CCN(C(c6ccccc6)c6ccccc6)CC5)C(F)(F)C4)cc3C2=O)C(=O)N1 (centres unmarked) | IV9 (40% < IV9 ≤ 50%)

Same assay, conditions: 1 µM, PHA 1 µg/mL, 24 h

Row | SMILES | Inhibition Rate (%) TNF-α
7 | O=C1CCC(N2Cc3cc(CCN4CCC(N5CCN(c6cccc(Cl)c6Cl)CC5)C(F)(F)C4)ccc3C2=O)C(=O)N1 (centres unmarked) | IV9 (40% < IV9 ≤ 50%)
8 | O=C1CCC(N2C(=O)c3ccc(CN4CCC(N5CCN(C(c6ccccc6)c6ccccc6)CC5)C(F)(F)C4)cc3C2=O)C(=O)N1 (centres unmarked) | IV9 (40% < IV9 ≤ 50%)

Target: CRBN (Homo sapiens, UniProt Q96SW2)
Assay: CRBN binding affinity by HTRF (CEREBLON BINDING kit)
Details: CRBN binding, HTRF, compound at 0.5 µM

Row | SMILES | Inhibition Rate at 0.5 µM (%)
9 | O=C1CCC(N2Cc3cc(CCN4CCC(N5CCN(c6cccc(Cl)c6Cl)CC5)C(F)(F)C4)ccc3C2=O)C(=O)N1 (centres unmarked) | a4 (40% < a4 ≤ 53%)

Same assay, conditions: CRBN binding, HTRF, compound at 2 µM

Row | SMILES | Inhibition Rate at 2 µM (%)
10 | O=C1CCC(N2Cc3cc(CCN4CCC(N5CCN(c6cccc(Cl)c6Cl)CC5)C(F)(F)C4)ccc3C2=O)C(=O)N1 (centres unmarked) | a5 (53% < a5 ≤ 60%)

Target: GSPT1 (Homo sapiens, UniProt P15170+Q96SW2)
Assay: Western blot assay of substrate protein degradation in hPBMCs
Details: 24 hours treatment, compounds at 50 nM and 500 nM (concentration behind the class not stated)

Row | SMILES | substrate protein remaining % (GSPT1)
11 | O=C1CCC(N2Cc3cc(CCN4CCC(N5CCN(c6cccc(Cl)c6Cl)CC5)C(F)(F)C4)ccc3C2=O)C(=O)N1 (centres unmarked) | A (0% ≤ substrate protein remaining % ≤ 80%)
12 | O=C1CCC(N2C(=O)c3ccc(CN4CCC(N5CCN(C(c6ccccc6)c6ccccc6)CC5)C(F)(F)C4)cc3C2=O)C(=O)N1 (centres unmarked) | A (0% ≤ substrate protein remaining % ≤ 80%)

Target: IKZF2 (Homo sapiens, UniProt Q96SW2+Q9UKS7)
Assay: as above
Details: 24 hours treatment, compounds at 50 nM and 500 nM (concentration behind the class not stated)

Row | SMILES | substrate protein remaining % (IKZF2)
13 | O=C1CCC(N2Cc3cc(CCN4CCC(N5CCN(c6cccc(Cl)c6Cl)CC5)C(F)(F)C4)ccc3C2=O)C(=O)N1 (centres unmarked) | B (80%< substrate protein remaining %≤ 100%)
14 | O=C1CCC(N2C(=O)c3ccc(CN4CCC(N5CCN(C(c6ccccc6)c6ccccc6)CC5)C(F)(F)C4)cc3C2=O)C(=O)N1 (centres unmarked) | A (0% ≤ substrate protein remaining % ≤ 80%)

Target: CK1α (Homo sapiens, UniProt P48729+Q96SW2)
Assay: as above
Details: 24 hours treatment, compounds at 50 nM and 500 nM (concentration behind the class not stated)

Row | SMILES | substrate protein remaining % (CK1a)
15 | O=C1CCC(N2Cc3cc(CCN4CCC(N5CCN(c6cccc(Cl)c6Cl)CC5)C(F)(F)C4)ccc3C2=O)C(=O)N1 (centres unmarked) | A (0% ≤ substrate protein remaining % ≤ 80%)
16 | O=C1CCC(N2C(=O)c3ccc(CN4CCC(N5CCN(C(c6ccccc6)c6ccccc6)CC5)C(F)(F)C4)cc3C2=O)C(=O)N1 (centres unmarked) | A (0% ≤ substrate protein remaining % ≤ 80%)

Target: WEE1 (Homo sapiens, UniProt P30291+Q96SW2)
Assay: as above
Details: 24 hours treatment, compounds at 50 nM and 500 nM (concentration behind the class not stated)

Row | SMILES | substrate protein remaining % (WEE1)
17 | O=C1CCC(N2Cc3cc(CCN4CCC(N5CCN(c6cccc(Cl)c6Cl)CC5)C(F)(F)C4)ccc3C2=O)C(=O)N1 (centres unmarked) | A (0% ≤ substrate protein remaining % ≤ 80%)
18 | O=C1CCC(N2C(=O)c3ccc(CN4CCC(N5CCN(C(c6ccccc6)c6ccccc6)CC5)C(F)(F)C4)cc3C2=O)C(=O)N1 (centres unmarked) | B (80%< substrate protein remaining %≤ 100%)

Target: IKZF1 (Homo sapiens, UniProt Q13422+Q96SW2)
Assay: as above
Details: 24 hours treatment, compounds at 50 nM and 500 nM (concentration behind the class not stated)

Row | SMILES | substrate protein remaining % (IKZF 1)
19 | O=C1CCC(N2Cc3cc(CCN4CCC(N5CCN(c6cccc(Cl)c6Cl)CC5)C(F)(F)C4)ccc3C2=O)C(=O)N1 (centres unmarked) | A (0% ≤ substrate protein remaining % ≤ 80%)
20 | O=C1CCC(N2C(=O)c3ccc(CN4CCC(N5CCN(C(c6ccccc6)c6ccccc6)CC5)C(F)(F)C4)cc3C2=O)C(=O)N1 (centres unmarked) | B (80%< substrate protein remaining %≤ 100%)

Target: IKZF3 (Homo sapiens, UniProt Q96SW2+Q9UKT9)
Assay: as above
Details: 24 hours treatment, compounds at 50 nM and 500 nM (concentration behind the class not stated)

Row | SMILES | substrate protein remaining % (IKZF3)
21 | O=C1CCC(N2Cc3cc(CCN4CCC(N5CCN(c6cccc(Cl)c6Cl)CC5)C(F)(F)C4)ccc3C2=O)C(=O)N1 (centres unmarked) | B (80%< substrate protein remaining %≤ 100%)
22 | O=C1CCC(N2C(=O)c3ccc(CN4CCC(N5CCN(C(c6ccccc6)c6ccccc6)CC5)C(F)(F)C4)cc3C2=O)C(=O)N1 (centres unmarked) | A (0% ≤ substrate protein remaining % ≤ 80%)

Test system: GM-CSF
Assay: Inflammatory cytokine release from PBMCs induced by PMA + Ionomycin (flow cytometry CBA)
Details: 0.1 µM, 24 h

Row | SMILES | Inhibition Rate (%) GM-CSF
23 | O=C1CCC(N2Cc3cc(CCN4CCC(N5CCN(c6cccc(Cl)c6Cl)CC5)C(F)(F)C4)ccc3C2=O)C(=O)N1 (centres unmarked) | IV10 (50% < IV 10 ≤ 60%)
24 | O=C1CCC(N2C(=O)c3ccc(CN4CCC(N5CCN(C(c6ccccc6)c6ccccc6)CC5)C(F)(F)C4)cc3C2=O)C(=O)N1 (centres unmarked) | IV9 (40% < IV9 ≤ 50%)

Same assay, conditions: 1 µM, 24 h

Row | SMILES | Inhibition Rate (%) GM-CSF
25 | O=C1CCC(N2Cc3cc(CCN4CCC(N5CCN(c6cccc(Cl)c6Cl)CC5)C(F)(F)C4)ccc3C2=O)C(=O)N1 (centres unmarked) | IV1 0
26 | O=C1CCC(N2C(=O)c3ccc(CN4CCC(N5CCN(C(c6ccccc6)c6ccccc6)CC5)C(F)(F)C4)cc3C2=O)C(=O)N1 (centres unmarked) | IV7 (20% < IV7 ≤ 30%)
